Assay results taken from patent US20230218581A1, “COMPOSITIONS AND METHODS COMPRISING DENDRIMERS AND THERAPEUTIC AGENTS” (The Johns Hopkins University, priority 2020, published 2023).

Key:
[1] = in vivo; tested form: 2HCl; cited from earlier work
AT8+ granular neurons = settings: in vivo; tested form: 2HCl; cited from earlier work
VCAM-1 = settings: tested form: 2HCl; cited from earlier work
[2] = system: synaptic proteins (PSD-95, NR2A, GluR1); test: synaptic protein levels after nSMase2 inhibitor treatment; settings: in vivo; tested form: 2HCl

O=C(C=Cc1ccc(C=CC(=O)Nc2ccc(C3=NCCN3)cc2)cc1)Nc1ccc(C2=NCCN2)cc1
toxicity in chronic studies [1]: no overt behavioral or physiological toxicities or body mass changes | suppression of number of AT8+ granular neurons in dentate gyrus (AT8+ granular neurons): 75% | VCAM-1 expression (VCAM-1): lowers VCAM-1 expression | changes in synaptic proteins (PSD-95, NR2A, GluR1) [2]: significant changes in synaptic proteins
